The nature of this data set: Saturated drug solutions in normal saline used to fill hollow fibers. In kind it is physicochemical.

Each structure is given as a SMILES string.

`O=C(O)c1cn(C2CC2)c2cc(N3CCNCC3)c(F)cc2c1=O` [ciprofloxacin]: the “concentration of saturated solution” value came to 30000 µg/mL.

The record behind these values is patent US10952961B2, “Implants and constructs including hollow fibers” (priority 2015, dated 2021).
